# Results reported in ChEMBL document CHEMBL2074488, “Kinetic and selectivity differences between rodent, rabbit, and human organic cation transporters (OCT1)” (J Pharmacol Exp Ther, 2000).
# Target: T1, Solute carrier family 22 member 1 (Rattus norvegicus, UniProt Q63089)
# T1 sequence (Q63089 whole entry): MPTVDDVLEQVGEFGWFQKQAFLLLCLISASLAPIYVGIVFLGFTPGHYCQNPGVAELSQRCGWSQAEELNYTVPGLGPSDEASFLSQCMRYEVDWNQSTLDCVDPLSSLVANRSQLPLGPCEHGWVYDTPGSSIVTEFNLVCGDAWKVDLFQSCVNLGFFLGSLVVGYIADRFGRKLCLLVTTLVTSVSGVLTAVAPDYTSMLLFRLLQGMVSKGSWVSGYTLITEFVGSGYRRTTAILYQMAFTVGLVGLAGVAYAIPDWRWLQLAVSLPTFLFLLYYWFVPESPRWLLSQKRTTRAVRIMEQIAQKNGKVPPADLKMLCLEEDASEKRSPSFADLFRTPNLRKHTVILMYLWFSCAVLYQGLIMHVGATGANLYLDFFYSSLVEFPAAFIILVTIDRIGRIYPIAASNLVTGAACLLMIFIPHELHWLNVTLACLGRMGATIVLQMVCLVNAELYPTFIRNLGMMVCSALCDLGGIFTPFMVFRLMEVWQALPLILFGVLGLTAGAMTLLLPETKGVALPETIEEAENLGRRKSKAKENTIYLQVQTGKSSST
# Format: functional, cell-based, Xenopus laevis, Oocyte
structure (smiles),measurement,value
C[N+](C)(C)C [TETRAMETHYLAMMONIUM],Ki,905 µM
